Experimental data taken from PubChem BioAssay AID1117353 (Cheminformatics & Chemogenomics Research Group (CCRG), …, 2015).
Only a part is listed here, and it is no random draw. The source made the active and inactive calls. Rule as the data show it: active = inhibition above about 50%; inactive = the rest.

The chains behind the UniProt entries cited, without tags or fusion partners.
UniProt P35968, whole entry, looked up: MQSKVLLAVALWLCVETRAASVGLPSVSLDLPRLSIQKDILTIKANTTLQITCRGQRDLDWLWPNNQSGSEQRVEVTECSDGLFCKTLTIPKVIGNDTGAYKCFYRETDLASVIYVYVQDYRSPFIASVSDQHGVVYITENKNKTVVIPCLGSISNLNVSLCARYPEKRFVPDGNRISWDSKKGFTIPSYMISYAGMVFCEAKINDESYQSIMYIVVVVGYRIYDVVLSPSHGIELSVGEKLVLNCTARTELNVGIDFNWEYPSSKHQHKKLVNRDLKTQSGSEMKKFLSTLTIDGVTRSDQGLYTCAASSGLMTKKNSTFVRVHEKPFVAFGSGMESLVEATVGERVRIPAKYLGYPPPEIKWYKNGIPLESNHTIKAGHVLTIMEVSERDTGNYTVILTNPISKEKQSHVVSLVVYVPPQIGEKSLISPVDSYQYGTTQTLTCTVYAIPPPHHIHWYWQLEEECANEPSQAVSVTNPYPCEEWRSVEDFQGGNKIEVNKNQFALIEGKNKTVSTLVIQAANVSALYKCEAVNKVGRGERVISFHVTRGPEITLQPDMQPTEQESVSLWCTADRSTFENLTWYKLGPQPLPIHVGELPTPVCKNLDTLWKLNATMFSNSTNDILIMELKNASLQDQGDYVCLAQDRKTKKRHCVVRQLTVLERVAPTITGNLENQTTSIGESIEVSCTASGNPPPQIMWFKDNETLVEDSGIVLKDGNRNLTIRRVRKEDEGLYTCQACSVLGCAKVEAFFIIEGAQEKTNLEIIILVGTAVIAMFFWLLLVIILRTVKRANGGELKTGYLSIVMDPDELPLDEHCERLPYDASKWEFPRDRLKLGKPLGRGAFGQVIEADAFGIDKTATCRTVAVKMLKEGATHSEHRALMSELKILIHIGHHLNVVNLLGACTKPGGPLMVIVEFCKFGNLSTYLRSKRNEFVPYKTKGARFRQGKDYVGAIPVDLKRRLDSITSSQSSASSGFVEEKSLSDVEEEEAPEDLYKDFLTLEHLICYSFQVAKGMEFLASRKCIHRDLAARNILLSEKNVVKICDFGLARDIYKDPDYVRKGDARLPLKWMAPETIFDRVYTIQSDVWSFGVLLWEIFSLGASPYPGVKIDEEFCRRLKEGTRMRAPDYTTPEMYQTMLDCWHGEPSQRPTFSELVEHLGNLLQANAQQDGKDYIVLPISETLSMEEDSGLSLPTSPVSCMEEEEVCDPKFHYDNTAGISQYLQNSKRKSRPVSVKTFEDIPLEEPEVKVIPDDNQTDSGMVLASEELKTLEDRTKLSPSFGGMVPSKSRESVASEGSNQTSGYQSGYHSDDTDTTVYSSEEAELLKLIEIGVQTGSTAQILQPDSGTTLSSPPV

Biological target: Vascular endothelial growth factor receptor 2 (Homo sapiens) (UniProt P35968)
Experiment: Biochemical primary assay, inhibitors of H. sapiens VEGFR2, LANCE Ultra time-resolved FRET readout, NPC library (AID 1117353)
Settings: LANCE Ultra TR-FRET kinase assay; at 20 µM (top of the series)

## CN(CCCl)CCCl
  inhibition: inactive: 18.2%
